Test results from patent publication US20240190860A1, “8-CYCLO-SUBSTITUTED QUINAZOLINE DERIVATIVES AS LPA RECEPTOR 2 INHIBITORS” (CHIESI FARMACEUTICI S.p.A., priority 2021, published 2024).

Protein sequences, listed by entry. Tags and fused reporters are not part of them.
UniProt Q9HBW0, whole entry: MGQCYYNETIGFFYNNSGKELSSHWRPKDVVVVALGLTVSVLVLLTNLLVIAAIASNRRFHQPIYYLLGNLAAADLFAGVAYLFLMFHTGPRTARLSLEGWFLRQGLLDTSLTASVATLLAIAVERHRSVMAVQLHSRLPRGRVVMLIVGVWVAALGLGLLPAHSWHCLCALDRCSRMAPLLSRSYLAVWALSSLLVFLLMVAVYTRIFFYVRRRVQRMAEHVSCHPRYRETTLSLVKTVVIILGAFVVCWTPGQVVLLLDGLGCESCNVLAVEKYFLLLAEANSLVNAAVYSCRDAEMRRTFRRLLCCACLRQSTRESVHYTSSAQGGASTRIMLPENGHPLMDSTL

Biological target: T1, human recombinant LPA2 expressed in CHO cells (Homo sapiens, UniProt Q9HBW0)
T1 construct: expressed in transfected cells; host or cells: CHO cells (CHO-hLPA2 cell line)
Experiment: FLIPR calcium mobilization assay, LPA2 antagonism in CHO-hLPA2 cells
Assay type: cell-based
Conditions: inhibition of LPA EC80 Ca2+ response, 30 min pre-incubation
Procedure: The effectiveness of compounds of the present invention as LPA2 antagonist can be determined at the human recombinant LPA2 expressed in CHO cells, using a FLIPR assay in 384 well format.
CHO-hLPA2 cell lines are cultured in a humidified incubator at 5% C02 in DMEM/F-12 (1:1) MIXTURE with 2 mM Glutamax, supplemented with 10% of Foetal Bovine Serum, 1 mM Sodium Pyruvate, 11 mM Hepes and 1× Penicillin/Streptomycin. CHO hLPA2 cells are seeded into black walled clear-bottom 384-well plates (#781091, Greiner Bio-One GmbH) at a density of 7,500 cells per well in 50 μl culture media and grown overnight in a 37° C. humidified CO2-incubator. Serial dilutions (1:3 or 1:4, 11 points CRC) of compounds are performed in 100% DMSO at 200× the final concentration. […] The loaded cell plates are transferred into the FLIPR instrument and calcium responses are monitored during the on-line addition protocols. […] Intracellular peak fluorescence values subtracted by baseline fluorescence are exported and analysed to determine IC50 values, respectively. The calcium response is expressed as percentage of the maximal inhibition of the EC80 agonist response.
The raw data (peak height expressed as relative fluorescence units) are normalized and transformed into “percent of inhibition”. […]

In the case of COC(=O)Nc1nc(C)c(S(=O)(=O)N2CCN(C[C@H](C)Nc3ncnc4c(-c5ccc(CN6CCCC6)cc5)cccc34)CC2)s1 [Example 23, methyl N-[4-methyl-5-({4-[(2S)-2-[(8-{4-[(pyrrolidin-1-yl)methyl]phenyl}quinazolin-4-yl)amino]propyl]piperazin-1-yl}sulfonyl)-1,3-thiazol-2-yl]carbamate], the IC50 is reported as under 0.01 µM.
